# Results as given in US4088642A (priority 1973, dated 1978).
# Tests used:
# [1] = Gas evolution temperature; type: physicochemical; settings: Table III
# [2] = Table III
# [3] = Table III; remark: listed apart in the source
structure (smiles),measurement,setting,value
CC(C#N)(N=NC(C)(C#N)C(C)(C)OO)C(C)(C)OO (stereo not shown),Gas Evolution Temperature,[1],70 °C
same,"Ten Hour Half-Life Temperature, Azo",[2],≈ 65 °C
same,"Ten Hour Half-Life Temperature, Peroxide",[2],160-170 °C
same,Shock Sensitivity,[3],negative
